Where a name gives a salt, the structure may show the parent alone.
molecular target: T1, human NTCP (Homo sapiens, UniProt Q14973); assay: Screening fluorescent competitive Myrcludex B-FITC binding assay (96-well, 10 µM drug); settings: 0.5 h, read-out: %NTCP binding, screening Myrcludex B-FITC binding, 10 µM drug, Prestwick library
T1 sequence (Q14973 1-349): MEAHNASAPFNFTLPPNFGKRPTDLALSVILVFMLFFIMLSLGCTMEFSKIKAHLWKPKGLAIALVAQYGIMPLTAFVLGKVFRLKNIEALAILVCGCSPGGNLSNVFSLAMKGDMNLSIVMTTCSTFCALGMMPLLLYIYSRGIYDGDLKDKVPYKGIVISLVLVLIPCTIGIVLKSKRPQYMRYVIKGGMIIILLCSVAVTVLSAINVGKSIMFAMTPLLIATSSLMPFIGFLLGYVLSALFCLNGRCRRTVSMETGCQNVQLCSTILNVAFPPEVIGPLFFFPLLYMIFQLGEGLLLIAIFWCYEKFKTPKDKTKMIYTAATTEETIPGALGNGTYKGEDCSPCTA

Question: Which remaining activity at 10 µM does the source give for `CCN(C(C)=O)c1cccc(-c2ccnc3c(C#N)cnn23)c1` [Zaleplon] here?
Answer: 79.9%

same assay, conditions: screening Myrcludex B-FITC binding, 10 µM drug

Question: With `C=C1C(=O)O[C@H]2[C@H]1CC/C(C)=C/CC[C@@]1(C)O[C@@H]21` [Parthenolide] as the compound, how does the B-score binding assay read?
Answer: -0.753

Question: How did the B-score binding assay turn out when `NS(=O)(=O)c1cc(C2(O)NC(=O)c3ccccc32)ccc1Cl` (stereo not drawn) [Chlorthalidone] was run?
Answer: 1.936

Question: How did the B-score binding assay turn out when `COC(=O)[C@@H]1[C@H]2C[C@H]3c4[nH]c5ccccc5c4CCN3C[C@@H]2CC[C@@H]1O` [Yohimbine hydrochloride] was run?
Answer: -0.435

Question: For `CCC(=O)OCC(=O)[C@@]1(OC(=O)CC)[C@@H](C)C[C@H]2[C@@H]3CCC4=CC(=O)C=C[C@]4(C)[C@@]3(Cl)[C@@H](O)C[C@@]21C` [Beclomethasone dipropionate], which B-score binding assay is on record?
Answer: -0.518

Question: `O=C1CC2(CCCC2)CC(=O)N1CCCCN1CCN(c2ncccn2)CC1` [Buspirone hydrochloride] was tested. Which B-score binding assay did it give?
Answer: -1.506

Question: How did the B-score binding assay turn out when `C[C@H](CCC(=O)O)[C@H]1CC[C@H]2[C@@H]3[C@H](O)C[C@@H]4C[C@H](O)CC[C@]4(C)[C@H]3CC[C@]12C` [Chenodiol] was run?
Answer: -8.499

Question: How did the B-score binding assay turn out when `Cc1cccc(C)c1NC(=O)CN1CCN(CCCC(c2ccc(F)cc2)c2ccc(F)cc2)CC1` [Lidoflazine] was run?
Answer: 0.174

Question: `CC(C)(O/N=C(\C(=O)N[C@@H]1C(=O)N2C(C(=O)[O-])=C(C[n+]3ccccc3)CS[C@H]12)c1csc(N)n1)C(=O)O` [Ceftazidime pentahydrate] was tested. Which B-score binding assay did it give?
Answer: 3.035

Question: `[H]/N=C(/N)N/C(=N/[H])NCCc1ccccc1` [Phenformin hydrochloride] was tested. Which B-score binding assay did it give?
Answer: -3.595

Question: `CCN(C(C)=O)c1cccc(-c2ccnc3c(C#N)cnn23)c1` [Zaleplon] was tested. Which B-score binding assay did it give?
Answer: -0.722

Question: For `C[C@]12CC[C@H]3C(=CCc4cc(O)ccc43)[C@@H]1CCC2=O` [Equilin], which B-score binding assay is on record?
Answer: 0.223

Question: `CN(C)CCOc1ccc(/C(=C(/CCCl)c2ccccc2)c2ccccc2)cc1` [Toremifene] was tested. Which B-score binding assay did it give?
Answer: -0.396

Question: With `COc1cnc(NS(=O)(=O)c2ccc(N)cc2)nc1` [Sulfameter] as the compound, how does the B-score binding assay read?
Answer: 0.699

Question: With `CC(CN(C)C)C(C)(O)Cc1ccc(Cl)cc1.Cl` (stereo not drawn) [Clobutinol hydrochloride] as the compound, how does the B-score binding assay read?
Answer: -0.481

Question: Which B-score binding assay does the source give for `Cc1ccc(S(=O)(=O)NC(=O)NN2CC3CCCC3C2)cc1` (stereo not drawn) [Gliclazide] here?
Answer: -1.775

Question: How did the B-score binding assay turn out when `CC[C@H]1OC(=O)[C@H](C)[C@@H](O[C@H]2C[C@@](C)(OC)[C@@H](O)[C@H](C)O2)[C@H](C)[C@@H](O[C@@H]2O[C@H](C)C[C@H](N(C)C)[C@H]2O)[C@](C)(O)C[C@@H](C)/C(=N\OCOCCOC)[C@H](C)[C@@H](O)[C@]1(C)O` [Roxithromycin] was run?
Answer: -2.478

Question: How did the B-score binding assay turn out when `c1ccc(C2CN3CCSC3=N2)cc1` (stereo not drawn) [Tetramisole hydrochloride] was run?
Answer: -0.001

Question: `OCCN1C[C@H](O)[C@@H](O)[C@H](O)[C@H]1CO` [Miglitol] was tested. Which B-score binding assay did it give?
Answer: 1.428

Question: With `Cc1c(C)c2c(c(C)c1O)CCC(C)(C(=O)O)O2` (stereo not drawn) [Trolox] as the compound, how does the B-score binding assay read?
Answer: -1.293

Question: `OC(Cn1cncn1)(Cn1cncn1)c1ccc(F)cc1F` [Fluconazole] was tested. Which B-score binding assay did it give?
Answer: -0.834

Question: How did the B-score binding assay turn out when `CCCCCN(C)CCC(O)(P(=O)([O-])O)P(=O)(O)O.[Na+]` [Ibandronate sodium] was run?
Answer: -2.926

Question: `NC[C@H]1O[C@H](O[C@H]2[C@H](O)[C@@H](O[C@H]3O[C@H](CO)[C@@H](O)[C@H](N)[C@H]3O)[C@H](N)C[C@@H]2N)[C@H](N)C[C@@H]1O` [Tobramycin] was tested. Which B-score binding assay did it give?
Answer: -0.14

Question: How did the B-score binding assay turn out when `CC1(C)S[C@@H]2[C@H](NC(=O)[C@H](N)c3ccccc3)C(=O)N2[C@H]1C(=O)O` [Ampicillin trihydrate] was run?
Answer: -1.914

Question: For `COC(=O)C1=C(C)NC(C)=C(C(=O)OCC(C)C)C1c1ccccc1[N+](=O)[O-]` (stereo not drawn) [Nisoldipine], which B-score binding assay is on record?
Answer: -2.798

Question: Which B-score binding assay does the source give for `Oc1c(Cl)cc(Cl)c2cccnc12` [Chloroxine] here?
Answer: 0.011

Question: Which B-score binding assay does the source give for `Cl.OC1CCCCC1N1CCC(c2ccccc2)CC1` (stereo not drawn) [L(-)-vesamicol hydrochloride] here?
Answer: -2.139

Question: For `Cc1c(Nc2ncccc2C(=O)O)cccc1C(F)(F)F` [Flunixin meglumine], which B-score binding assay is on record?
Answer: -1.258

Question: `CCCC(C(=O)OCCN(CC)CC)(c1ccccc1)c1ccccc1` [Proadifen hydrochloride] was tested. Which B-score binding assay did it give?
Answer: 1.307

Question: Which B-score binding assay does the source give for `Cc1cc(C(=O)NNCc2ccccc2)no1` [Isocarboxazid] here?
Answer: -0.695

Question: `c1ccc(-c2ccc(C(c3ccccc3)n3ccnc3)cc2)cc1` (stereo not drawn) [Bifonazole] was tested. Which B-score binding assay did it give?
Answer: -0.97

Question: For `CO/N=C(\C(=O)N[C@@H]1C(=O)N2C(C(=O)OC(C)OC(C)=O)=C(COC(N)=O)CS[C@H]12)c1ccco1` (stereo partly drawn) [Cefuroxime axetil], which B-score binding assay is on record?
Answer: 0.39

Question: For `Cc1c(O)cccc1C(=O)N[C@@H](CSc1ccccc1)[C@H](O)CN1C[C@H]2CCCC[C@H]2C[C@H]1C(=O)NC(C)(C)C` [Nelfinavir mesylate], which B-score binding assay is on record?
Answer: -6.406

Question: With `CC(=O)[N-]S(=O)(=O)c1ccc(N)cc1.O.[Na+]` [Sulfacetamide sodic hydrate] as the compound, how does the B-score binding assay read?
Answer: -1.286

Question: How did the B-score binding assay turn out when `CN/C(=N/CCSCc1nc[nH]c1C)NC#N` [Cimetidine] was run?
Answer: -1.404

Question: Which B-score binding assay does the source give for `CC1(C)O[C@@H]2C[C@H]3[C@@H]4CCC5=CC(=O)CC[C@]5(C)[C@@]4(F)[C@@H](O)C[C@]3(C)[C@]2(C(=O)CCl)O1` [Halcinonide] here?
Answer: -0.333

Question: For `NCCc1c[nH]c2ccc(O)cc12` [Serotonin hydrochloride], which B-score binding assay is on record?
Answer: -8.308

Question: With `CC(=O)NCCCS(=O)(=O)O` [Acamprosate calcium] as the compound, how does the B-score binding assay read?
Answer: -3.028

Question: For `CC(C)c1c(C(=O)Nc2ccccc2)c(-c2ccccc2)c(-c2ccc(F)cc2)n1CC[C@@H](O)C[C@@H](O)CC(=O)O` [Atorvastatin], which B-score binding assay is on record?
Answer: -0.008

Question: `CCN(CC)CCc1nc(-c2ccccc2)no1.O=C(O)CC(O)(CC(=O)O)C(=O)O` [Oxalamine citrate salt] was tested. Which B-score binding assay did it give?
Answer: -0.496

Question: With `COc1cc(C)nc(-n2nc(C)cc2OC)n1` [Epirizole] as the compound, how does the B-score binding assay read?
Answer: -3

Question: For `COc1c(O[C@@H]2O[C@H](CO)[C@@H](O)[C@H](O)[C@H]2O)cc2c(c1OC)-c1ccc(SC)c(=O)cc1[C@@H](NC(C)=O)CC2` [Thiocolchicoside], which B-score binding assay is on record?
Answer: -2.286

Question: How did the B-score binding assay turn out when `CSc1nc2cc(Cl)c(Oc3cccc(Cl)c3Cl)cc2[nH]1` [Triclabendazole] was run?
Answer: -0.027

Question: For `CN(C)CCN(Cc1ccccc1)c1ccccn1` [Tripelennamine hydrochloride], which B-score binding assay is on record?
Answer: 0.048

Question: With `OC(CCN1CCCCC1)(c1ccccc1)C1CC2C=CC1C2` (stereo not drawn) [Biperiden hydrochloride] as the compound, how does the B-score binding assay read?
Answer: -0.046

Question: For `CCN(CC)C(=O)c1ccc(O)c(OC)c1` [Ethamivan], which B-score binding assay is on record?
Answer: 24.366

Question: `CC(=O)N[C@@H](CS)C(=O)O` [Acetylcysteine] was tested. Which B-score binding assay did it give?
Answer: 1.995

Question: Which B-score binding assay does the source give for `CC(=O)Oc1ccc(C(c2ccc(OC(C)=O)cc2)c2ccccn2)cc1` [Bisacodyl] here?
Answer: -2.592

Question: For `CC/C(=C(/CC)c1ccc(O)cc1)c1ccc(O)cc1` [Diethylstilbestrol], which B-score binding assay is on record?
Answer: -1.483

Question: `CC(=O)O[C@]1(C(C)=O)CC[C@H]2[C@@H]3C=C(Cl)C4=CC(=O)CC[C@]4(C)[C@H]3CC[C@@]21C` [Chlormadinone acetate] was tested. Which B-score binding assay did it give?
Answer: -2.961

Question: `COc1ccc(-c2ccc3cc(C(=O)O)ccc3c2)cc1C12CC3CC(CC(C3)C1)C2` [Adapalene] was tested. Which B-score binding assay did it give?
Answer: -0.233

Question: How did the B-score binding assay turn out when `Cc1c(O)c(=O)n(-c2ccccc2)n1C` [Antipyrine, 4-hydroxy] was run?
Answer: -0.283

Question: How did the B-score binding assay turn out when `CC(=O)OC(C)C[N+](C)(C)C` (stereo not drawn) [Methacholine chloride] was run?
Answer: -0.327

Question: With `NC(=O)OCC(COC(N)=O)c1ccccc1` [Felbamate] as the compound, how does the B-score binding assay read?
Answer: -0.478

Question: How did the B-score binding assay turn out when `CCS(=O)(=O)CCn1c([N+](=O)[O-])cnc1C` [Tinidazole] was run?
Answer: -0.04

Question: Which B-score binding assay does the source give for `O=C(O)CCC(=O)Nc1ccc(S(=O)(=O)Nc2nccs2)cc1` [Succinylsulfathiazole] here?
Answer: -1.868

Question: Which B-score binding assay does the source give for `C#Cc1cccc(Nc2ncnc3cc(OCCOC)c(OCCOC)cc23)c1` [Erlotinib] here?
Answer: 0.555

Question: How did the B-score binding assay turn out when `CC[C@H](C)C(=O)O[C@H]1C[C@H](O)C=C2C=C[C@H](C)[C@H](CC[C@@H](O)C[C@@H](O)CC(=O)O)[C@H]21` [Pravastatin] was run?
Answer: 1.277

Question: Which B-score binding assay does the source give for `CC[C@H](C)[C@H]1O[C@]2(CC[C@@H]1C)C[C@@H]1C[C@@H](C/C=C(\C)[C@@H](O[C@H]3C[C@H](OC)[C@@H](O[C@H]4C[C@H](OC)[C@@H](O)[C@H](C)O4)[C@H](C)O3)[C@@H](C)/C=C/C=C3\CO[C@@H]4[C@H](O)C(C)=C[C@@H](C(=O)O1)[C@]34O)O2` [Ivermectin] here?
Answer: -3.124

Question: With `Cc1cc(-n2c(=O)[nH]c(=O)n(C)c2=O)ccc1Oc1ccc(SC(F)(F)F)cc1` [Toltrazuril] as the compound, how does the B-score binding assay read?
Answer: -4.683

same assay, conditions: screening Myrcludex B-FITC binding, 10 µM drug, Prestwick library

Question: Which “%NTCP binding” value does the source give for `CC(CN(C)C)C(C)(O)Cc1ccc(Cl)cc1.Cl` (stereo not drawn) [Clobutinol hydrochloride] here?
Answer: 47.1079%

Question: `CCN(CC)CCc1nc(-c2ccccc2)no1.O=C(O)CC(O)(CC(=O)O)C(=O)O` [Oxalamine citrate salt] was tested. Which “%NTCP binding” value did it give?
Answer: 114.734%

same assay, conditions: screening Myrcludex B-FITC binding, 10 µM drug; B-score

Question: With `CC1CCc2c(N3CCC(O)CC3)c(F)cc3c(=O)c(C(=O)O)cn1c23` (stereo not drawn) [Nadifloxacin] as the compound, how does the B-score binding assay read?
Answer: 2.719

Question: For `CO/N=C(\C(=O)N[C@@H]1C(=O)N2C(C(=O)O)=C(C[N+]3(C)CCCC3)CS[C@H]12)c1csc(N)n1` [Cefepime hydrochloride], which B-score binding assay is on record?
Answer: 1.672

Question: `NCc1ccccc1CC(=O)N[C@@H]1C(=O)N2C(C(=O)O)=C(CSc3nnnn3CC(=O)O)CS[C@H]12` [Ceforanide] was tested. Which B-score binding assay did it give?
Answer: 2.25

Question: For `C=CCc1ccccc1OCC(O)CNC(C)C` (stereo not drawn) [Alprenolol hydrochloride], which B-score binding assay is on record?
Answer: 1.351

Question: How did the B-score binding assay turn out when `CC(C)(C)NCC(O)c1ccccc1Cl` (stereo not drawn) [Tulobuterol] was run?
Answer: 1.917

Question: `COC(=O)Nc1nc2ccc(Sc3ccccc3)cc2[nH]1` [Fenbendazole] was tested. Which B-score binding assay did it give?
Answer: 2.801

Question: For `CN1CCN(C(c2ccccc2)c2ccc(Cl)cc2)CC1` (stereo not drawn) [Chlorcyclizine hydrochloride], which B-score binding assay is on record?
Answer: 2.035

Reference: article PMC5681660, “Reduced hepatitis B and D viral entry using clinically applied drugs as novel inhibitors of the bile acid transporter NTCP” (Scientific Reports, 2017)
